For the experiment, the target named is T1, HARBS site of PDE4.
T1 construct: HARBS IC50; other: mouse brain membranes, [3H]-ROLIPRAM displacement; other: mouse brain; other: relative to ROLIPRAM (25, 26) or
Briefly: Displacement of [3H]-ROLIPRAM from the high affinity binding site (HARBS) in mouse brain membranes. As to conditions: [3H]-ROLIPRAM displacement. As for the experimental part: In order to perform this assay, female CD1 mice are sacrificed via the intraperitoneal injection of 100 μL ethanol, and the brain tissue is homogenized in 5 mL of ice-cold Tris-HCl, pH 8.00 supplemented with 1.2 mM MgCl2, 1 mM benzamidine (Sigma; Catalogue No. B 6506) and 0.1 mM PMSF (Sigma; Catalogue No. P 7626). The suspension is centrifuged twice at 30,000×G at 4° C. and then the supernatant discarded. The pellet is resuspended in buffer, and adjusted to a protein concentration of 0.5 mg/mL. Compounds to be tested are dissolved in DMSO and pipetted in triplicate into a 96 well microplate at concentrations ranging from 1 to 30,000 nM. […] The plate is incubated at 4° C. for 1 hour. Contents of the plate are aspirated through a Whatman GF/C filterplate, and rinsed with 4×200 μL ice-cold buffer. The plate is dried overnight, and then 30 μL of Microscint 20 (Packard; Catalogue No. 6013621) is added to each well, and plate is read in the scintillation counter with a sampling time of 2 minutes/well. […] Triplicate determinations should be performed at each concentration.
For orientation: In a radioligand displacement assay an active substance lowers the binding of a labelled ligand.

In the case of `COc1cc(CC2C(=O)NCC2c2ccc(OC)c(OC3CCCC3)c2)ccc1O` (stereo not shown) [Compound 26], the IC50 – broadly, the concentration that gives 50% inhibition – turned out to be 0.601 µM. This counts as sub-micromolar.

Values taken from patent publication US7459479B2, “Benzylated PDE4 inhibitors” (Biolipox AB, priority 2000, dated 2008).
